According to patent US11124554B2, “Modified ligand-gated ion channels and methods of use” (Howard Hughes Medical Institute, priority 2016, dated 2021):
Where two headings read alike, the source gives them in different places.

Protein sequences, listed by entry. Tags and fused reporters are not part of them. Chains listed by the source or under a name are the forms on record and can include a tag or linker.
UniProt P36544, with tags, fused parts or gaps T225I/M226I: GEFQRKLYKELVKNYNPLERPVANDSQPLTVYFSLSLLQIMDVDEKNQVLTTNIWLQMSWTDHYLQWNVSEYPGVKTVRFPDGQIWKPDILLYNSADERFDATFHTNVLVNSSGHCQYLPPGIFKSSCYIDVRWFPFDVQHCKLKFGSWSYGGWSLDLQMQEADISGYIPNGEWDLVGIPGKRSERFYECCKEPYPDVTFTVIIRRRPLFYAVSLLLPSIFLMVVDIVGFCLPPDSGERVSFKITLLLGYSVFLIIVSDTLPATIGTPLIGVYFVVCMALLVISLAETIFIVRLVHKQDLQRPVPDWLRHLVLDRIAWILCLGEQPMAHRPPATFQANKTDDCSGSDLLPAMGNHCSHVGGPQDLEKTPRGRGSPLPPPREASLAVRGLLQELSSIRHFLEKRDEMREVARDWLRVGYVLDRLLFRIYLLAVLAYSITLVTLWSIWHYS
UniProt P36544, with tags, fused parts or gaps Q79G/T225I/M226I: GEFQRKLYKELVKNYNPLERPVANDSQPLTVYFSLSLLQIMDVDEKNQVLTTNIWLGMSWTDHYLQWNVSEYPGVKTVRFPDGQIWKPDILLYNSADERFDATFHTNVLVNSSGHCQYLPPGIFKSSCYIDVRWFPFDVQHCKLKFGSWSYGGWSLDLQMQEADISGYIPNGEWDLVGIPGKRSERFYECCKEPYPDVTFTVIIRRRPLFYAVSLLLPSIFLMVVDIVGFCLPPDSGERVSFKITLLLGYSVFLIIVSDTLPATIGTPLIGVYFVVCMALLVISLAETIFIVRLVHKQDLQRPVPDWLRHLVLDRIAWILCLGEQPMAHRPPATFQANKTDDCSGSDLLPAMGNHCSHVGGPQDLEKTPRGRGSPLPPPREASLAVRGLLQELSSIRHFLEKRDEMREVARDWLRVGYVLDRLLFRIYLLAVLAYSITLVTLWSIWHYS
UniProt P36544, with tags, fused parts or gaps Q79A: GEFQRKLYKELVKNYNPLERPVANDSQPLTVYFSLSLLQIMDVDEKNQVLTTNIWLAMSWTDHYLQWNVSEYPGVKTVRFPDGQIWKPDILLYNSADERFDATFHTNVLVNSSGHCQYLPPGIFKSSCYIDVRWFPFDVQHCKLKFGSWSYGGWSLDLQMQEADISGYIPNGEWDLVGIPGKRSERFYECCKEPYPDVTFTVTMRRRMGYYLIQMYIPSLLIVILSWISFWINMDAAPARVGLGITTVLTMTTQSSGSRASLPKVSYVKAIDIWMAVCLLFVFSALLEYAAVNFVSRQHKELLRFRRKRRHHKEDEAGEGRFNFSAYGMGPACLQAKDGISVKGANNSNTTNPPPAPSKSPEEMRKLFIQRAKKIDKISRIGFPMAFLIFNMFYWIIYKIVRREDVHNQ
UniProt P36544, with tags, fused parts or gaps Q79S: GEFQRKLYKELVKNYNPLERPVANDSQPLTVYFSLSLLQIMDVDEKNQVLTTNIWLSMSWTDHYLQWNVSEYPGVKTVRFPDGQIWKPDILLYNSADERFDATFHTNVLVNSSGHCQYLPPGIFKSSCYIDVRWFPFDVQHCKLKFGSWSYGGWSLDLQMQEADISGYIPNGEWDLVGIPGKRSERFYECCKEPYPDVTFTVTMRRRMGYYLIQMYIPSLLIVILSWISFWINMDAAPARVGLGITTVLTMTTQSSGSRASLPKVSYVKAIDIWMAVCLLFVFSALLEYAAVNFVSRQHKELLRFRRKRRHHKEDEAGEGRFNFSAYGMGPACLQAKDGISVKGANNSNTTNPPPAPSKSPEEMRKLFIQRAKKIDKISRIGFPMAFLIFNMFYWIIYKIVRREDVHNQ
UniProt P36544, with tags, fused parts or gaps G175K: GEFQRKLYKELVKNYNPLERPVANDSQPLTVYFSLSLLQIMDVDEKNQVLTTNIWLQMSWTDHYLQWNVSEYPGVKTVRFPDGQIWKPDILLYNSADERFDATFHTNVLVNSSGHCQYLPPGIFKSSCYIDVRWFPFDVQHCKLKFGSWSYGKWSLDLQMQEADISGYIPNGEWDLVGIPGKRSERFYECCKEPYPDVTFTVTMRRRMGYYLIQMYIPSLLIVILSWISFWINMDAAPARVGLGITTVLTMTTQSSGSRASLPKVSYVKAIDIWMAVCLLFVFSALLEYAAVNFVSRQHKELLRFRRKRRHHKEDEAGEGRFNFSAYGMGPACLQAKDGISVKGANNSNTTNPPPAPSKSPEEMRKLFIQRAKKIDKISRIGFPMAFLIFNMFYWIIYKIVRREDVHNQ
UniProt P36544, with tags, fused parts or gaps Y115F/G175K: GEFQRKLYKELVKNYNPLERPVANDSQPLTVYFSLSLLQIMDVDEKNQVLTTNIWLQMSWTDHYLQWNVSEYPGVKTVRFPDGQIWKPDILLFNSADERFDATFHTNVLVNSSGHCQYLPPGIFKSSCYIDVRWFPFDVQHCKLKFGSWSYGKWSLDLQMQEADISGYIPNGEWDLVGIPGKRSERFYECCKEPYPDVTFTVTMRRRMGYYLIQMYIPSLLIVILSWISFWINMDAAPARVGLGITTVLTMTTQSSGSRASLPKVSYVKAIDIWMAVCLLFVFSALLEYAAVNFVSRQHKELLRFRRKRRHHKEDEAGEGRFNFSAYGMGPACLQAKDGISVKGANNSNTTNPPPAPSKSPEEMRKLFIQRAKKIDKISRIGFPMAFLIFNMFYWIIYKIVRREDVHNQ
UniProt P36544, with tags, fused parts or gaps G175K/Y210F: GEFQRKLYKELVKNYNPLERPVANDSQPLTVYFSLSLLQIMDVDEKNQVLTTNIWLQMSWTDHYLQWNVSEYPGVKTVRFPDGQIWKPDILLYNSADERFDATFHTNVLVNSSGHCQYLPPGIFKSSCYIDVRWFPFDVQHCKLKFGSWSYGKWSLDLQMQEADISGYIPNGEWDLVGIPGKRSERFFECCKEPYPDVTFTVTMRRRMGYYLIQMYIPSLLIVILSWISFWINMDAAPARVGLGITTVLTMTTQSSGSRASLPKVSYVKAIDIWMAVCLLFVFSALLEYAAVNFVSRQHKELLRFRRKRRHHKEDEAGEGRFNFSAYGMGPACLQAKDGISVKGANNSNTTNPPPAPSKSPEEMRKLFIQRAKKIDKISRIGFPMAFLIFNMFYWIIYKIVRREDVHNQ
UniProt P36544, with tags, fused parts or gaps W77F/G175K: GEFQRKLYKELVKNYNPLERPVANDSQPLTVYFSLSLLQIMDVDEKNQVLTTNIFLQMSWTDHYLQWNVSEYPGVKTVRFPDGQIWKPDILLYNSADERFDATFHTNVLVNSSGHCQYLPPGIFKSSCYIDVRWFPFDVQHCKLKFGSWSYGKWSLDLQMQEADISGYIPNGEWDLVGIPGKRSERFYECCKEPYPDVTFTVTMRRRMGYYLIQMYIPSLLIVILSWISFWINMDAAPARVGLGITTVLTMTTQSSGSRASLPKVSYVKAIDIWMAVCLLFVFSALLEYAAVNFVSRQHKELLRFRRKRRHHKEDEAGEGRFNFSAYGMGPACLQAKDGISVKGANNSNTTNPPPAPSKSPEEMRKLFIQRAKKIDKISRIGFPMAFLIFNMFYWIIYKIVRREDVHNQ
UniProt P36544, with tags, fused parts or gaps Q79G/G175K: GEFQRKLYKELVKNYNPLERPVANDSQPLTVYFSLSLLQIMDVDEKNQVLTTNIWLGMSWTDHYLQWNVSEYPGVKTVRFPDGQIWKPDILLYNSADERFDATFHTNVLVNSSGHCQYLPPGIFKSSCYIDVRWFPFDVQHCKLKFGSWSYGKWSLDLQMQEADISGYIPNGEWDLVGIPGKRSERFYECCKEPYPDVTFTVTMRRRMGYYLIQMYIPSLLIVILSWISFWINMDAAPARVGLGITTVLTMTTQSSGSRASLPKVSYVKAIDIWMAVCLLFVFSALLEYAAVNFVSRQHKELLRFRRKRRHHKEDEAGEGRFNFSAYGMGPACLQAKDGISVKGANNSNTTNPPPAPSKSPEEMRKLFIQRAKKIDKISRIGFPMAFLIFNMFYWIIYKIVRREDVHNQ
UniProt P36544, with tags, fused parts or gaps W77F/Q79G/G175K: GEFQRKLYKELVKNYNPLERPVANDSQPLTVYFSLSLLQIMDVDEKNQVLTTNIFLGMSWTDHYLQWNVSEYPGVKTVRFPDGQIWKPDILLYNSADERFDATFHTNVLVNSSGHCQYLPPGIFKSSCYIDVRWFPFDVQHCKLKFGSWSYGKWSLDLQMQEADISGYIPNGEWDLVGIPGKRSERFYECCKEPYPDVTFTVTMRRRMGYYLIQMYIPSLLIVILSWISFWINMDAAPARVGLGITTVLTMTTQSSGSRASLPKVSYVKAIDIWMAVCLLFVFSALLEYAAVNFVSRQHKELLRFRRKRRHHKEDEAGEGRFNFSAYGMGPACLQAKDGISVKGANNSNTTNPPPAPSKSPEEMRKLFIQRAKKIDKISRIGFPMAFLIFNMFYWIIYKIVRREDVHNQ
UniProt P36544, with tags, fused parts or gaps W77F/Q79G/Y115F/G175K: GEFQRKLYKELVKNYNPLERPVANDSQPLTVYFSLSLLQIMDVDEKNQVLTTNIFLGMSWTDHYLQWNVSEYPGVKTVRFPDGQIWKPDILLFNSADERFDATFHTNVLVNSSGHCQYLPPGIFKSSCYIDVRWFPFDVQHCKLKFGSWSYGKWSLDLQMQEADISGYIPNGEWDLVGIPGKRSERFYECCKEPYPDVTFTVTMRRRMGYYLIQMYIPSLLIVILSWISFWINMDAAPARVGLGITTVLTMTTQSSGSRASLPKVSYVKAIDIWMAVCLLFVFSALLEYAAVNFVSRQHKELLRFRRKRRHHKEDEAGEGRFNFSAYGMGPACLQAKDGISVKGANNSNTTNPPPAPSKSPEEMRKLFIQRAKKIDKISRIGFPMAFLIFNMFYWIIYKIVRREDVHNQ
UniProt P36544, with tags, fused parts or gaps W77F/G175K/Y210F: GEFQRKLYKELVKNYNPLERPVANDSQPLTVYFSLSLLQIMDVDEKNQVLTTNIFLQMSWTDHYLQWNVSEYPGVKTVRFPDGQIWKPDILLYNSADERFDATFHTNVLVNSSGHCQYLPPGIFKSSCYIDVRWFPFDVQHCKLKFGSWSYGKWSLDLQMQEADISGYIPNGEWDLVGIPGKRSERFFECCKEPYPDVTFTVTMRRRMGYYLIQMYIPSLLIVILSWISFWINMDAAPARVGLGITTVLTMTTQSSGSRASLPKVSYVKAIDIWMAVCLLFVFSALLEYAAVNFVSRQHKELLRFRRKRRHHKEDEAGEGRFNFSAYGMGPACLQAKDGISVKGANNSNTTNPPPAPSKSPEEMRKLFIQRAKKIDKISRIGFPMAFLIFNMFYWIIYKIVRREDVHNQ
α7^Q79G,Y115F,G175K-GlyR (Homo sapiens, UniProt P36544, G175K/Q79G/Y115F), UniProt P36544, with tags, fused parts or gaps Q79G/Y115F/G175K: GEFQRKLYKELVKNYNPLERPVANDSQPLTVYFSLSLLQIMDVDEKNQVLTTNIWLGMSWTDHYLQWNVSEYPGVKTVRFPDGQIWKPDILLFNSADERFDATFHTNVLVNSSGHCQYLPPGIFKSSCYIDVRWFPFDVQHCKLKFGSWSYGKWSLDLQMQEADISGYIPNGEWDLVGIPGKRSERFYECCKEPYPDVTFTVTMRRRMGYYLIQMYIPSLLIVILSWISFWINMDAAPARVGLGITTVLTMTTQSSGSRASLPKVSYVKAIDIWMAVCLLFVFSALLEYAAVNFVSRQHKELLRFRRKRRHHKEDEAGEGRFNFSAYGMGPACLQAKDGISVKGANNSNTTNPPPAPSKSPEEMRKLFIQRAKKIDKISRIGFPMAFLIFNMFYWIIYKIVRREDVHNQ
UniProt P36544, with tags, fused parts or gaps Q79G/Y115F/G175K/Y210F: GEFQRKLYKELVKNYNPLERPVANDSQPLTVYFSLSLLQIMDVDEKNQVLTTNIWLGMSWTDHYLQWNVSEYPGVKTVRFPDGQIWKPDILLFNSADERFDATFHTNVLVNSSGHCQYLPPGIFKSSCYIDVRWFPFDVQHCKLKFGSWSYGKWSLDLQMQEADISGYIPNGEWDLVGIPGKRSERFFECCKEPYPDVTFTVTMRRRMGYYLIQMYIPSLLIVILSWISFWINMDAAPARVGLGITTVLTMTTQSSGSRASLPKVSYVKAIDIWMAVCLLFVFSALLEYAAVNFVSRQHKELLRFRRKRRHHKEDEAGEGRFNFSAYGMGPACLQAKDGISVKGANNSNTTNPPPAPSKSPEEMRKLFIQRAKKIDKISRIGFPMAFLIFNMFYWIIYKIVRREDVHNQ
α7GlyR Q79G Y115F G175K K322L (Homo sapiens, UniProt P36544, G175K/Q79G/Y115F), UniProt P36544, with tags, fused parts or gaps Q79G/Y115F/G175K: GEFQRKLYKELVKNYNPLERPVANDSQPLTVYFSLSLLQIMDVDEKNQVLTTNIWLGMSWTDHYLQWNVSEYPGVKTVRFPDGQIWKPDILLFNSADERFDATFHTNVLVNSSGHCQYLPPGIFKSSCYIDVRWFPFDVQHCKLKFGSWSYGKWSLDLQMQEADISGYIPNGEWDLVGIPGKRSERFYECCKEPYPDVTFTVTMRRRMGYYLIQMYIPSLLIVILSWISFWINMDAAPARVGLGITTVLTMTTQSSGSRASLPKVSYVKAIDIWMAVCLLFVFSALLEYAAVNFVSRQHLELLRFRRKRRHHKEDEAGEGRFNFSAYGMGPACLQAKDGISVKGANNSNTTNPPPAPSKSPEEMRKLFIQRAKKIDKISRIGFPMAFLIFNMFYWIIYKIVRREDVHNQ

What was measured:
α7-5HT3 = target: T1, α7-5HT3 (Homo sapiens, UniProt P36544, M226I/T225I); experiment: Agonist potency (EC50), HEK cells expressing chimeric channel; format: cell-based, human α7 nAChR LBD, murine 5HT3 IPD
T1 construct: expressed in transfected cells; host or cells: HEK cells

α7^Q79G-5HT3 = target: T2, α7^Q79G-5HT3 (Homo sapiens, UniProt P36544, M226I/Q79G/T225I); experiment: as above; format: cell-based, human α7 nAChR LBD, murine 5HT3 IPD
T2 construct: expressed in transfected cells; host or cells: HEK cells

α7^Q79A-GlyR = target: T3, α7^Q79A-GlyR (Homo sapiens, UniProt P36544, Q79A); experiment: as above; format: cell-based; settings: read-out: Mean EC50 and SEM in parentheses, α7^Q79A-GlyR
T3 construct: expressed in transfected cells; host or cells: HEK cells

α7^Q79S-GlyR = target: T4, α7^Q79S-GlyR (Homo sapiens, UniProt P36544, Q79S); experiment: as above; format: cell-based; settings: read-out: Mean EC50 and SEM in parentheses, α7^Q79S-GlyR
T4 construct: expressed in transfected cells; host or cells: HEK cells

α7^G175K-GlyR = target: T5, α7^G175K-GlyR (Homo sapiens, UniProt P36544, G175K); experiment: Agonist potency at chimeric channel; format: cell-based; settings: read-out: Agonist potency, α7GlyR G175K
T5 construct: expressed in transfected cells

α7^Y115F,G175K-GlyR = target: T6, α7^Y115F,G175K-GlyR (Homo sapiens, UniProt P36544, G175K/Y115F); experiment: Agonist potency at chimeric channel; format: cell-based
T6 construct: expressed in transfected cells

α7^G175K,Y210F-GlyR = target: T7, α7^G175K,Y210F-GlyR (Homo sapiens, UniProt P36544, G175K/Y210F); experiment: Agonist potency at chimeric channel; format: cell-based; settings: read-out: Agonist potency, α7GlyR G175K Y210F
T7 construct: expressed in transfected cells

α7^W77F,G175K-GlyR = target: T8, α7^W77F,G175K-GlyR (Homo sapiens, UniProt P36544, G175K/W77F); experiment: Agonist potency at chimeric channel; format: cell-based; settings: read-out: Agonist potency, α7GlyR W77F G175K
T8 construct: expressed in transfected cells

α7^Q79G,G175K-GlyR = target: T9, α7^Q79G,G175K-GlyR (Homo sapiens, UniProt P36544, G175K/Q79G); experiment: Agonist potency at chimeric channel; format: cell-based; settings: read-out: Agonist potency, α7GlyR Q79G G175K
T9 construct: expressed in transfected cells

α7^W77F,Q79G,G175K-GlyR = target: T10, α7^W77F,Q79G,G175K-GlyR (Homo sapiens, UniProt P36544, G175K/Q79G/W77F); experiment: Agonist potency at chimeric channel; format: cell-based; settings: read-out: Agonist potency, α7GlyR W77F Q79G G175K
T10 construct: expressed in transfected cells

[1] = target: T11, α7GlyR W77F Q79G Y115F G175K (Homo sapiens, UniProt P36544, G175K/Q79G/W77F/Y115F); experiment: Agonist potency at chimeric channel; format: cell-based
T11 construct: expressed in transfected cells

α7^W77F,G175K,Y210F-GlyR = target: T12, α7^W77F,G175K,Y210F-GlyR (Homo sapiens, UniProt P36544, G175K/W77F/Y210F); experiment: Agonist potency at chimeric channel; format: cell-based; settings: read-out: Agonist potency, α7GlyR W77F G175K Y210F
T12 construct: expressed in transfected cells

α7^Q79G,Y115F,G175K-GlyR = target: T13, α7^Q79G,Y115F,G175K-GlyR (Homo sapiens, UniProt P36544, G175K/Q79G/Y115F); experiment: Agonist potency at chimeric channel; format: cell-based; settings: read-out: Agonist potency, α7GlyR Q79G G175K Y115F
T13 construct: expressed in transfected cells

[2] = target: T14, α7GlyR Q79G Y115F G175K Y210F (Homo sapiens, UniProt P36544, G175K/Q79G/Y115F/Y210F); experiment: Agonist potency at chimeric channel; format: cell-based
T14 construct: expressed in transfected cells

[3] = target: T15, α7GlyR Q79G Y115F G175K K322L (Homo sapiens, UniProt P36544, G175K/Q79G/Y115F); experiment: Agonist potency at chimeric channel; format: cell-based
T15 construct: expressed in transfected cells

[4] = target: T16, α7^L141F,Y115F,G175K-GlyR (Homo sapiens, UniProt P36544, G175K/L141F/Y115F); experiment: Agonist potency at chimeric channel; format: cell-based; settings: read-out: Agonist potency, α7GlyR Y115F G175K L141F
T16 construct: expressed in transfected cells

α7^Q79G,Q139L,G175K-GlyR = target: T17, α7^Q79G,Q139L,G175K-GlyR (Homo sapiens, UniProt P36544, G175K/Q139L/Q79G); experiment: Agonist potency at chimeric channel; format: cell-based; settings: read-out: Agonist potency, α7GlyR Q79G Q139L G175K
T17 construct: expressed in transfected cells

[5] = target: T18, α7GlyR Q79G G175K Y115F R27D E41R (Homo sapiens, UniProt P36544, E41R/G175K/Q79G/R27D/Y115F); experiment: Agonist potency at chimeric channel; format: cell-based
T18 construct: expressed in transfected cells

α7^Y115F-GlyR G175A = target: T19, α7^Y115F-GlyR G175A (Homo sapiens, UniProt P36544, G175A/Y115F); experiment: Agonist potency at chimeric channel (Table 8); format: cell-based; settings: α7GlyR Y115F G175A
T19 construct: expressed in transfected cells

α7^Y115F-GlyR G175F = target: T20, α7^Y115F-GlyR G175F (Homo sapiens, UniProt P36544, G175F/Y115F); experiment: Agonist potency at chimeric channel (Table 8); format: cell-based; settings: α7GlyR Y115F G175F
T20 construct: expressed in transfected cells

α7^Y115F-GlyR G175M = target: T21, α7^Y115F-GlyR G175M (Homo sapiens, UniProt P36544, G175M/Y115F); experiment: Agonist potency at chimeric channel (Table 8); format: cell-based; settings: α7GlyR Y115F G175M
T21 construct: expressed in transfected cells

α7^Y115F-GlyR G175R = target: T22, α7^Y115F-GlyR G175R (Homo sapiens, UniProt P36544, G175R/Y115F); experiment: Agonist potency at chimeric channel (Table 8); format: cell-based; settings: α7GlyR Y115F G175R
T22 construct: expressed in transfected cells

α7^Y115F-GlyR G175S = target: T23, α7^Y115F-GlyR G175S (Homo sapiens, UniProt P36544, G175S/Y115F); experiment: Agonist potency at chimeric channel (Table 8); format: cell-based; settings: α7GlyR Y115F G175S
T23 construct: expressed in transfected cells

α7^L131A-GlyR = target: T24, α7^L131A-GlyR (Homo sapiens, UniProt P36544, L131A); experiment: Agonist potency at chimeric channel (Table 9); format: cell-based
T24 construct: expressed in transfected cells

α7^Q79S,L131G-GlyR = target: T25, α7^Q79S,L131G-GlyR (Homo sapiens, UniProt P36544, L131G/Q79S); experiment: Agonist potency at chimeric channel (Table 9); format: cell-based
T25 construct: expressed in transfected cells

α7^L131M-GlyR = target: T26, α7^L131M-GlyR (Homo sapiens, UniProt P36544, L131M); experiment: Agonist potency at chimeric channel (Table 9); format: cell-based
T26 construct: expressed in transfected cells

α7^L131Q-GlyR = target: T27, α7^L131Q-GlyR (Homo sapiens, UniProt P36544, L131Q); experiment: Agonist potency at chimeric channel (Table 9); format: cell-based
T27 construct: expressed in transfected cells

α7^L131F-GlyR = target: T28, α7^L131F-GlyR (Homo sapiens, UniProt P36544, L131F); experiment: Agonist potency at chimeric channel (Table 9); format: cell-based
T28 construct: expressed in transfected cells

α7^L131G-GABAc = target: T29, α7^L131G-GABAc (Homo sapiens, UniProt P36544, L131G); experiment: Agonist potency at chimeric channel (Table 9); format: cell-based
T29 construct: expressed in transfected cells

[6] = target: T30, α7^L131G,Q139L,Y217F-5HT3 HC (Homo sapiens, UniProt P36544, L131G/M226I/Q139L/T225I/Y217F); experiment: Agonist potency at chimeric channel (Table 9); format: cell-based; settings: α75HT3 L131G Q139L Y217F HC
T30 construct: expressed in transfected cells

α7GABAc (GABAA-ρ) W298A = target: T31, α7GABAc (GABAA-ρ) W298A (Homo sapiens, UniProt P36544, L141F/Q79G); experiment: Agonist potency at chimeric channel (Table 7); format: cell-based
T31 construct: expressed in transfected cells

α7^L131N-GlyR = target: T32, α7^L131N-GlyR (Homo sapiens, UniProt P36544, L131N); experiment: Agonist potency at chimeric channel (Table 9); format: cell-based; settings: α7GlyR L131N
T32 construct: expressed in transfected cells

[7] = target: T33, α7GlyR R27D E41R Q79G Y115F (Homo sapiens, UniProt P36544, E41R/Q79G/R27D/Y115F); experiment: Agonist potency at chimeric channel (Table 7); format: cell-based
T33 construct: expressed in transfected cells

α7GlyR Q79G L131G = target: T34, α7GlyR Q79G L131G (Homo sapiens, UniProt P36544, L131G/Q79G); experiment: Agonist potency at chimeric channel (Table 9); format: cell-based
T34 construct: expressed in transfected cells

α7GlyR L131G D219A = target: T35, α7GlyR L131G D219A (Homo sapiens, UniProt P36544, D219A/L131G); experiment: Agonist potency at chimeric channel (Table 9); format: cell-based
T35 construct: expressed in transfected cells

α7GlyR Y115F L131M = target: T36, α7GlyR Y115F L131M (Homo sapiens, UniProt P36544, L131M/Y115F); experiment: Agonist potency at chimeric channel (Table 9); format: cell-based
T36 construct: expressed in transfected cells

With c1cnc2cc3c(cc2n1)[C@@H]1CNC[C@H]3C1 [Varenicline] the EC50 (α7-5HT3) was 920 nM, the EC50 (α7^Q79G-5HT3) was 910 nM and the EC50 (α7^Q79A-GlyR) was 480 nM. It also gave an EC50 (α7^Q79S-GlyR) of 280 nM, an EC50 (α7^G175K-GlyR) of 56 nM and an EC50 (α7^Y115F,G175K-GlyR; read-out: Agonist potency) of 5000 nM. For the same compound, the EC50 (α7^Y115F,G175K-GlyR; read-out: Agonist potency, α7GlyR Y115F G175K) was 5000 nM, the EC50 (α7^G175K,Y210F-GlyR) was 4300 nM and the EC50 (α7^W77F,G175K-GlyR) was 570 nM. For the same compound, the EC50 (α7^Q79G,G175K-GlyR) was 420 nM, the EC50 (α7^W77F,Q79G,G175K-GlyR) was 3300 nM and the EC50 [1] was over 10000 nM. It also gave an EC50 (α7^W77F,G175K,Y210F-GlyR) of over 9000 nM, an EC50 (α7^Q79G,Y115F,G175K-GlyR) of over 10000 nM and an EC50 [2] of over 30000 nM. For the same compound, the EC50 [3] was over 30000 nM, the EC50 [4] was over 8100 nM and the EC50 (α7^Q79G,Q139L,G175K-GlyR) was 960 nM. The EC50 [5] was 4900 nM, the EC50 (α7^Y115F-GlyR G175A) was 5900 nM and the EC50 (α7^Y115F-GlyR G175F) was 13600 nM. It also gave an EC50 (α7^Y115F-GlyR G175M) of 14100 nM, an EC50 (α7^Y115F-GlyR G175R) of 7600 nM and an EC50 (α7^Y115F-GlyR G175S) of 9700 nM. The EC50 (α7^L131A-GlyR) was 82 nM, the EC50 (α7^Q79S,L131G-GlyR) was 7 nM and the EC50 (α7^L131M-GlyR) was 530 nM. It also gave an EC50 (α7^L131Q-GlyR) of 720 nM, an EC50 (α7^L131F-GlyR) of 2600 nM and an EC50 (α7^L131G-GABAc) of 300 nM. It also gave an EC50 [6] of 7 nM, an EC50 (α7GABAc (GABAA-ρ) W298A) of 6270 nM and an EC50 (α7^L131N-GlyR) of 69 nM. It also gave an EC50 [7] of over 30000 nM, an EC50 (α7GlyR Q79G L131G) of over 10000 nM and an EC50 (α7GlyR L131G D219A) of 780 nM. For the same compound, the EC50 (α7GlyR Y115F L131M) was over 100000 nM.
